Measurements taken from patent publication US9353061B2, “3,5,N-trihydroxy-alkanamide and derivatives: method for making same and use thereof” (Academia Sinica, priority 2012, dated 2016).

By UniProt entry, the sequences of proteins in these tests, tags left out. Where a name states a change or a piece, a line headed by the entry shows the natural chain unless it says otherwise. Residues count along the entry.
UniProt Q9UBN7: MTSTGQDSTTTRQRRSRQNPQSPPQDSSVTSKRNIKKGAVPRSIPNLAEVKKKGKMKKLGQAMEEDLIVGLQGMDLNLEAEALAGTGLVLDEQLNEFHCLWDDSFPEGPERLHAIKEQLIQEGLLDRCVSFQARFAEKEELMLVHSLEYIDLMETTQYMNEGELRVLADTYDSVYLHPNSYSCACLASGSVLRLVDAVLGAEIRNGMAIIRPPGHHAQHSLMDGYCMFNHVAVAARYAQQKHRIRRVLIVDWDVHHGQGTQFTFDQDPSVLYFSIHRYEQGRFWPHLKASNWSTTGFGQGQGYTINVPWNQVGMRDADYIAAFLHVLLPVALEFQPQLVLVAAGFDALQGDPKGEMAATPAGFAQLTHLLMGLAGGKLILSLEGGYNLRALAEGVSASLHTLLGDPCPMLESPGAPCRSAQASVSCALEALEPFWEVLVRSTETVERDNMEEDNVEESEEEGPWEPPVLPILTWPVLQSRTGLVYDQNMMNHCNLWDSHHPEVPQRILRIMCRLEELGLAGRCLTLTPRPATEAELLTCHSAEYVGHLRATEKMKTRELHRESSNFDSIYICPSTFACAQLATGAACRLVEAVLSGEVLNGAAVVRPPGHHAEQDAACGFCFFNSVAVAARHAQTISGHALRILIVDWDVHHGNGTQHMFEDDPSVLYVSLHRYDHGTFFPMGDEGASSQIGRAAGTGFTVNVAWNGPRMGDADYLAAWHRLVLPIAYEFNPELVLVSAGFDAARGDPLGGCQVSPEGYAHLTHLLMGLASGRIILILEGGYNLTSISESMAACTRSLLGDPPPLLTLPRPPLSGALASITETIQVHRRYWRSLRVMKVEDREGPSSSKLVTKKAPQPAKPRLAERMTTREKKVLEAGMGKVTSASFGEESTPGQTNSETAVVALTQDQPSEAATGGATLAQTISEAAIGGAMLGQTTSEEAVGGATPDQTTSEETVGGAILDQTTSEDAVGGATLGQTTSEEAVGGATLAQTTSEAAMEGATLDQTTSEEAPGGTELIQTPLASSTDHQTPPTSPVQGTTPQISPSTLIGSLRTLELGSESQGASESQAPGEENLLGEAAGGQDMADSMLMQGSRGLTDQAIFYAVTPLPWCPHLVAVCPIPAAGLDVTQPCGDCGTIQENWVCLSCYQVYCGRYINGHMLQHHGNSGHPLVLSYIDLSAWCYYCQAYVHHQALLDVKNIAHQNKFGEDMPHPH
UniProt P04035, 426-888: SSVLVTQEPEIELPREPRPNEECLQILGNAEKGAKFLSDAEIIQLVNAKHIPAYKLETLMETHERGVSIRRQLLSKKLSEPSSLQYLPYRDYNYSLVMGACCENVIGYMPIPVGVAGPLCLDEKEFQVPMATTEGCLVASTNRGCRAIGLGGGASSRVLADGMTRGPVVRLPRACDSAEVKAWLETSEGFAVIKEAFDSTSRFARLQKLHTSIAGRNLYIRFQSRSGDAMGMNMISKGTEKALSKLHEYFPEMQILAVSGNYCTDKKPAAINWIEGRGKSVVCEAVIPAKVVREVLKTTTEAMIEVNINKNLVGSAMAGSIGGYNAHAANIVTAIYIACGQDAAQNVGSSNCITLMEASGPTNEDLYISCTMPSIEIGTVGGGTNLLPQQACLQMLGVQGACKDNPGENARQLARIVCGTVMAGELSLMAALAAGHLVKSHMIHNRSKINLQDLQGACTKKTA

Experiments:
[1] = target: HDAC6 (Homo sapiens (Human), UniProt Q9UBN7); assay: HDAC fluorimetric activity assay (Fluor-de-Lys); type: biochemical; conditions: recombinant HDAC6
Description: The HDAC activity was performed using the HDAC fluorescent activity assay kit (BIOMOL, Plymouth Meeting, Pa., USA) according to the manufacturer's instructions. Briefly, recombinant proteins of HDAC1 or HDAC6 were incubated with test compounds, and HDAC reaction was initiated by addition of Fluor-de-Lys substrate. Samples were incubated for 10 min at room temperature, followed by adding developer to stop the reaction. Fluorescence was measured by fluorometric reader with excitation at 360 nm and emission at 460 nm. The HDAC activity was expressed as arbitrary fluorescence units (AFU). The HDAC activity was calculated as a percentage of activity compared with the control group. The half maximal inhibitory concentration (IC50) values for the test compounds were calculated from software SigmaPlot.
(§1) HDAC fluorometric activity assay was performed using Fluor-de-Lys as the substrate (BIOMOL, Plymouth Meeting, Pa., USA), and HMGR inhibition was evaluated by the […].

[2] = target: HMG-CoA reductase (HMGR) (Homo sapiens (Human), UniProt P04035); assay: HMG-CoA reductase activity assay (NADPH consumption, Sigma kit); type: biochemical; conditions: human recombinant protein
Description: The HMGR activity was performed using HMG-CoA reductase assay kit from Sigma-Aldrich with the human recombinant protein or 100 μg total cell lysates from A549 cells. […] HMGR activity under defined assay conditions, containing NADPH and HMG-CoA substrate in a final volume of 0.2 mL of 100 mM potassium phosphatate buffer (120 mM KCl, 1 mM EDTA, 5 mM DTT, pH 7.4), were initiated in the presence or absence (control) of test compounds dissolved in dimethylsulfoxide (DMSO). The rates of NADPH consumption were monitored every 20 seconds, for up to 10 minutes, by spectrophotometer at 37° C. and 340 nm. The HMGR activity was calculated as a percentage of activity compared with the control group at 5 min. The IC50 values were calculated from software SigmaPlot.
as §1

IC50 [1]: 14200 nM
IC50 [2]: 11.6 nM
Structure (SMILES): CC(C)c1c(C(=O)Nc2ccccc2)c(-c2ccccc2)c(-c2ccc(F)cc2)n1CC[C@@H](O)C[C@@H](O)CC(=O)O [Atorvastatin, atorvastatin, reference compound]
